Source: US20080187937A1, “Method For Measuring Dynamics Of Self-Assembling Systems Of Biological Molecules In Vivo And Uses For Discovering Or Evaluating Therapeutic Agents” (priority 2004, published 2008)

Tested on: sciatic nerve microtubules
Experiment: Densitometric analysis of free tubulin and microtubule abundance in sciatic nerve
Conditions: tumor-bearing mice (FIG. 6B)

CC(=O)O[C@H]1C(=O)[C@@]2(C)[C@H]([C@H](OC(=O)c3ccccc3)[C@]3(O)C[C@H](OC(=O)[C@H](O)[C@@H](NC(=O)c4ccccc4)c4ccccc4)C(C)=C1C3(C)C)[C@]1(OC(C)=O)CO[C@@H]1C[C@@H]2O [paclitaxel]
amount of microtubule polymers (sciatic nerve, densitometry): dose-dependent increase in the amount of microtubule polymers
